{"sequences": {"note": "The chains behind the UniProt entries cited, without tags or fusion partners. Residues count along the entry.", "UniProt P14867, 28-456": "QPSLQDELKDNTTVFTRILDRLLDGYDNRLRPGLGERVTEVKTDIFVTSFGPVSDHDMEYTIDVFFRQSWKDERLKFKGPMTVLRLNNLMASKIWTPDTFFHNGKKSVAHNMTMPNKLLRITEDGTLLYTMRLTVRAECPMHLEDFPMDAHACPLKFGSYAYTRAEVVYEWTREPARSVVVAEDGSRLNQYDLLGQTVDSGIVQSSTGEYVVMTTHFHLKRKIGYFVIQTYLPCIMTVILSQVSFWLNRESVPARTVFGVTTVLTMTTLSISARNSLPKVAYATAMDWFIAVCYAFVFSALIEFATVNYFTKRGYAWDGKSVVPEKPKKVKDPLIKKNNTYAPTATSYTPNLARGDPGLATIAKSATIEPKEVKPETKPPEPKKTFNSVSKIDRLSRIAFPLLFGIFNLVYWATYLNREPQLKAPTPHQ", "UniProt P18507, 40-467 isoform P18507-1 limits assumed": "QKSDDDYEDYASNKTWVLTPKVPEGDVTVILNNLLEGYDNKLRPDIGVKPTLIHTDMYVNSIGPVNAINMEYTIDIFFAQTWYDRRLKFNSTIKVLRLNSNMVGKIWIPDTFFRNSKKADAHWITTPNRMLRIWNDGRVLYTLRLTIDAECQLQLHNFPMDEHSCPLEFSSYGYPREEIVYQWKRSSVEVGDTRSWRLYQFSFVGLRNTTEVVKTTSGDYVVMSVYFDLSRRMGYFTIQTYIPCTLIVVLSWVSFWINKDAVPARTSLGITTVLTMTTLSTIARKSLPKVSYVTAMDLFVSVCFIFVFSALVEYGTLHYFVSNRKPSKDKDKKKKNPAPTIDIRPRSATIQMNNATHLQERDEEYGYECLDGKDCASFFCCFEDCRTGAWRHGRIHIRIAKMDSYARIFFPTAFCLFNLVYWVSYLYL", "UniProt P47870, 26-512": "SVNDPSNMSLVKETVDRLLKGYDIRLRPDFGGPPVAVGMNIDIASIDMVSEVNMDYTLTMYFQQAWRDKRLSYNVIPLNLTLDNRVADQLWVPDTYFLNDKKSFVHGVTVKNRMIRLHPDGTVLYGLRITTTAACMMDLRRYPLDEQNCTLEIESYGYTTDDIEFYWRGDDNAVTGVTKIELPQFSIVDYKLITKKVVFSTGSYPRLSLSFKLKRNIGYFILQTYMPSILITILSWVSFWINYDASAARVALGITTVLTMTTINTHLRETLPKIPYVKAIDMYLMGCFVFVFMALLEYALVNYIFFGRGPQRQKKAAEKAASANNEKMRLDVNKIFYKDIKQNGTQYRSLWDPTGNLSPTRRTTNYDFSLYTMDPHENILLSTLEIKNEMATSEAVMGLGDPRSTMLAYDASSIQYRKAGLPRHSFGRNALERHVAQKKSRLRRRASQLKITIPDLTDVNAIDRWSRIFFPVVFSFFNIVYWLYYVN"}, "source": "patent US10376524B2", "about": "“Use of GABAA receptor antagonists for the treatment of excessive sleepiness and disorders associated with excessive sleepiness” (EMORY UNIVERSITY, priority 2008, dated 2019)", "key": {"[1]": {"test_system": "Patient AS99 (idiopathic hypersomnia)", "assay": "Pittsburgh Sleep Quality Index, patient AS99 on sublingual flumazenil", "settings": "1 month post, pre-treatment 4"}, "[2]": {"test_system": "hypersomnic patients"}, "[3]": {"target": "human α1β2γ2s GABAA receptor (Homo sapiens, UniProt P14867+P18507+P47870)", "settings": "following 12 mg sublingual formulation of flumazenil; FIG. 2"}, "[4]": {"test_system": "hypersomnic patients", "assay": "Psychomotor Vigilance Task (PVT) after intravenous flumazenil", "type": "in vivo, human", "settings": "for number of lapses relative to baseline: group"}}, "note": "Read-outs that look alike come from different tables or passages of the source."}
{"smiles": "CCOC(=O)c1ncn2c1CN(C)C(=O)c1cc(F)ccc1-2", "note": "[flumazenil]", "values": [{"measurement": "Pittsburgh Sleep Quality Index", "setting": "[1]", "value": 2}, {"measurement": "mean relative Gamma Power", "setting": "[2]; subject DS122, 0.5 mg, 30 minutes after treatment, saline 0.0124", "value": 0.0142}, {"measurement": "mean relative Beta Power", "setting": "[2]; subject DS122, 0.5 mg, 30 minutes after treatment, saline 0.1011", "value": 0.1165}, {"measurement": "mean relative Alpha Power", "setting": "[2]; subject DS122, 0.5 mg, 30 minutes after treatment, saline 0.1966", "value": 0.2183}, {"measurement": "mean relative Theta Power", "setting": "[2]; subject DS122, 0.5 mg, 30 minutes after treatment, saline 0.2777", "value": 0.2995}, {"measurement": "mean relative Delta Power", "setting": "[2]; subject DS122, 0.5 mg, 30 minutes after treatment, saline 0.4122", "value": 0.3515}, {"measurement": "mean relative Gamma Power", "setting": "[2]; subject DS122, 2.0 mg, 30 minutes after treatment, saline 0.0124", "value": 0.0157}, {"measurement": "mean relative Beta Power", "setting": "[2]; subject DS122, 2.0 mg, 30 minutes after treatment, saline 0.1011", "value": 0.1141}, {"measurement": "mean relative Alpha Power", "setting": "[2]; subject DS122, 2.0 mg, 30 minutes after treatment, saline 0.1966", "value": 0.1798}, {"measurement": "mean relative Theta Power", "setting": "[2]; subject DS122, 2.0 mg, 30 minutes after treatment, saline 0.2777", "value": 0.3776}, {"measurement": "mean relative Delta Power", "setting": "[2]; subject DS122, 2.0 mg, 30 minutes after treatment, saline 0.4122", "value": 0.3128}, {"measurement": "mean relative Delta Power", "setting": "[2]; subject ED102, 0.5 mg, 10 min segment 30 minutes after treatment, saline 0.5314", "value": 0.5199}, {"measurement": "mean relative Gamma Power", "setting": "[2]; subject ED102, 0.5 mg, 30 minutes after treatment, saline 0.0565", "value": 0.0642}, {"measurement": "mean relative Alpha Power", "setting": "[2]; subject ED102, 0.5 mg, 30 minutes after treatment, saline 0.1090", "value": 0.1017}, {"measurement": "mean relative Beta Power", "setting": "[2]; subject ED102, 0.5 mg, 30 minutes after treatment, saline 0.1207", "value": 0.1387}, {"measurement": "mean relative Theta Power", "setting": "[2]; subject ED102, 0.5 mg, 30 minutes after treatment, saline 0.1824", "value": 0.1755}, {"measurement": "mean relative Gamma Power", "setting": "[2]; subject ED102, 2.0 mg, 30 minutes after treatment, saline 0.0565", "value": 0.1032}, {"measurement": "mean relative Alpha Power", "setting": "[2]; subject ED102, 2.0 mg, 30 minutes after treatment, saline 0.1090", "value": 0.0866}, {"measurement": "mean relative Beta Power", "setting": "[2]; subject ED102, 2.0 mg, 30 minutes after treatment, saline 0.1207", "value": 0.1803}, {"measurement": "mean relative Theta Power", "setting": "[2]; subject ED102, 2.0 mg, 30 minutes after treatment, saline 0.1824", "value": 0.1479}, {"measurement": "mean relative Delta Power", "setting": "[2]; subject ED102, 2.0 mg, 30 minutes after treatment, saline 0.5314", "value": 0.4820}, {"measurement": "enhancement of GABAA receptor function by subject's plasma", "setting": "[3]", "value": "Enhancement is reduced"}, {"measurement": "number of lapses relative to baseline", "setting": "[4]; high dose, t=3.51, p=0.039", "value": "decreased"}, {"measurement": "median RTs relative to baseline", "setting": "[4]; low dose, group of five cases, t=2.56, p=0.063", "value": "decreases"}, {"measurement": "number of lapses relative to baseline", "setting": "[4]; low dose, t=3.03, p=0.056", "value": "decreased"}]}
